# Literature values in US20050113573A1, “Nitroso compounds to treat ischemia” (priority 2003, published 2005).
# Some compounds may have been tested in ways that are not shown here.
# Tested on: rat kidney
# Conditions: rat kidney ischemia/reperfusion
substance,measurement,value
sodium nitroprusside,survival and histological damage,significantly better survival with minimal histological damage
